Among the data in patent publication US12338203B2 (TAISHO PHARMACEUTICAL CO., LTD., priority 2019, dated 2025) are IC50 values, retold here.

Protein sequences, listed by entry. Tags and fused reporters are not part of them.
UniProt Q92633, whole entry: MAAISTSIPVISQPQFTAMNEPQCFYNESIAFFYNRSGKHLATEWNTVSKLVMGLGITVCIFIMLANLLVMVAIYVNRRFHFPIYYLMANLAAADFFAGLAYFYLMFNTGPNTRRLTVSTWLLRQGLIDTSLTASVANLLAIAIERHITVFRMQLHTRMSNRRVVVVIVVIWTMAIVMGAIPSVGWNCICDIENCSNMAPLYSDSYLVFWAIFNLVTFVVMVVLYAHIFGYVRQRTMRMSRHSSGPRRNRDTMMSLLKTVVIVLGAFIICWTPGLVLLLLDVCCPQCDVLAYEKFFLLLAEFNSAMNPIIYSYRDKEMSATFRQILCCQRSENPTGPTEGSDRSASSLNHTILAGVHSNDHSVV

pIC50: −log10 of the molar value.

In the experiment the target is human LPAR1 (Homo sapiens, UniProt Q92633). Kind of experiment: Test Example 1: antagonism against response of LPA-induced increase in intracellular Ca2+ concentration in RH7777 cells stably expressing human LPAR1. Type of experiment: cell-based. The note with it: read-out: IC50 value (concentration producing 50% antagonism against response of LPA-induced increase in intracellular Ca2+ concentration), Fluo-4 fluorescence, FDSS6000.
On to `CCOc1cc(C(C)N(CCCCc2ccccc2)C(=O)NC2(C(=O)O)CC(F)(F)C2)cc(N(CC)CC)c1C(C)=O` (centres unmarked), for which the pIC50 is 7.04.
In the case of `CCOc1c(C2CC2)ccc([C@@H](C)N(CCO[C@@H](C)c2ccccc2)C(=O)N[C@]2(C(=O)O)C[C@@H](OCC)C2)c1Cl`, the pIC50 is 8.66.
With `CCOc1cc([C@@H](C)N(CCO[C@H](C)c2ccccc2)C(=O)NC2(C(=O)O)CC(OC)C2)cc(OCC)c1C1CC1` (some centres unmarked), the pIC50 was 8.87.
As for `CCOc1c(C(C)(C)O)ccc([C@@H](C)N(CCCCc2ccccc2)C(=O)NC2(C(=O)O)CC(F)(F)C2)c1C`, the pIC50 was 8.52.
As to `CCOc1c(C2CC2)ccc([C@@H](C)N(CCO[C@H](C)c2ccccc2)C(=O)NC2(C(=O)O)CC(OCC)C2)c1C` (some centres unmarked), the pIC50 was 8.45.
In the case of `CCOc1cc([C@@H](C)N(CCCCC2CCCCC2)C(=O)NC2(C(=O)O)CC(F)(F)C2)cc(OCC)c1C`, the pIC50 is 7.51.
In the case of `CCOc1cc(C(C)N(CCCCc2ccccc2)C(=O)NC2(C(=O)O)CC(F)(F)C2)cc2c1ncn2CC` (centres unmarked), the pIC50 was 6.72.
Take `CCOc1cc([C@@H](C)N(CCCC(F)(F)c2ccccc2)C(=O)NC2CC(C(=O)O)C2)cc(OCC)c1C1CC1` (some centres unmarked): the pIC50 was 8.50.
Take `CCOc1cc([C@@H](C)N(CCC2Cc3ccccc3C2)C(=O)NC2(C(=O)O)CC(OC)C2)c(C)c(OCC)c1C(C)=O` (some centres unmarked) [Example 4-24]: the pIC50 was 7.98.
In the case of `CCOc1c(C(C)=O)ccc([C@@H](C)N(CCO[C@H](C)c2ccccc2)C(=O)NC2(C(=O)O)CC(OC)C2)c1C` (some centres unmarked) [Example 4-154], the pIC50 was 8.07.
With `CCOc1cc(C(C)N(CCCCc2ccccc2)C(=O)NC2(C(=O)O)CC(F)(F)C2)cn(CC)c1=O` (centres unmarked), the pIC50 was 5.82.
Take `CCOc1cc([C@@H](C)N(CCCCc2ccccc2)C(=O)NC2CCOCC2C(=O)O)c(Cl)c(OCC)c1C(C)O` (some centres unmarked): the pIC50 is 8.42.
For `CCOc1cc(C(C)N(CCCCc2ccccc2)C(=O)NC2(C(=O)O)CC(F)(F)C2)cc(N(C)CC)c1C(C)=O` (centres unmarked) the value was 8.30; for `CCOc1cc([C@@H](C)N(CCO[C@@H](C)c2ccccc2)C(=O)N[C@]2(C(=O)O)C[C@H](OCC)C2)c(Cl)c(OCC)c1C(C)O` (some centres unmarked) [Example 5-63], 8.38; for `CCOC(=O)C1(NC(=O)N(CCO[C@@H](C)c2ccccc2)C(C)c2cc(OCC)c(C(C)=O)c(OCC)c2)CC(F)(F)C1` (some centres unmarked), 5.87.
Take `CCOc1cc(C(C)N(CCCCc2ccccc2)C(=O)NC2(C(=O)O)CC(F)(F)C2)cc2c1c(C)nc(=O)n2CC` (centres unmarked): the pIC50 is 5.67.
For `CCOc1cc([C@@H](C)N(CCCCc2ccccn2)C(=O)NC2(C(=O)O)CC(F)(F)C2)cc(OCC)c1C` the value was 7.57.
Take `CCOc1cc(C(C)N(CCCCc2ccccc2)C(=O)NC2(C(=O)O)CC(F)(F)C2)c2cn(CC)nc2n1` (centres unmarked): the pIC50 is 7.42.
For `CCOc1cc([C@@H](C)N(CCO[C@H](C)c2ccccc2)C(=O)NC2(C(=O)O)CC(OC)C2)cc(OCC)c1C(C)=O` (some centres unmarked) the value was 8.39; for `CCOc1cc([C@@H](C)N(CCOCc2ccccc2)C(=O)NC2(C(=O)O)CC2)cc(OCC)c1C(C)=O`, 8.64.
